Measured values as given in publication PMC11876601 (Molecular Systems Biology, 2025).

What was measured:
[1] = system: p-sites in DNA-damaged AsPC-1 cells; experiment: decryptM dose-resolved phosphoproteomics of ATRi in GEM-pre-treated cells; assay type: cell-based, human; conditions: for EC50: Homo sapiens
Description: (§1) Cell culture medium was replaced 24 h after seeding. […] For time point 0, AsPC-1 cells were treated with a vehicle and lysed immediately. The final DMSO concentration in all experiments was 0.2%.
Briefly, cells were washed twice with PBS and lysed in SDS lysis buffer (2% SDS in 40 mM Tris-HCl, pH 7.6), followed by sonication for 10 min (30 s on/30 s off) using a Bioruptor (Diagenode). For DNA hydrolysis, samples were boiled at 95 °C for 10 min and incubated with 2% trifluoroacetic acid (TFA) for 1 min, before the reaction was quenched using 4% N-methylmorpholine. Lysate was cleared by centrifugation at 11,000 × g for 5 min and protein concentration was determined using the Pierce BCA Protein Assay Kit (Thermo Scientific).
Using 70% ethanol, samples were then precipitated on beads, followed by washing thrice with 80% ethanol and once with 100% acetonitrile. Subsequently, proteins were reduced and alkylated using 10 mM TCEP, 50 mM chloroacetamide, and 2 mM CaCl2 in 100 mM EPPS/NaOH, pH 8.5 for 1 h at 37 °C, followed by tryptic digestion at 37 °C for 16 h. Peptides were acidified with 1% TFA and desalted on Chromabond HLB plates (30 µm particle size, 10 mg capacity, Machery-Nagel), using 0.1% TFA for equilibration and sample loading, and 0.1% TFA in 70% acetonitrile for peptide elution. Recovered peptides were freeze-dried by vacuum-centrifugation and stored at −20 °C.
Depending on the experiment, samples were either labeled with TMT-11plex (decryptM), TMT-10plex (non-decryptM, quadruplicates), or TMTpro reagent (time-series; all Thermo Scientific). Therefore, dried peptides were reconstituted in 15 µl 100 mM EPPS, pH 8.5 and each treatment condition was labeled with one channel of the respective TMT reagent (5 µl of 25 µg/µl reagent, Appendix Tables S4–S6). The reaction was incubated for 1 h at 23 °C and subsequently quenched with 0.4% hydroxylamine. Then, samples were pooled, acidified with 1% formic acid, and freeze-dried by vacuum-centrifugation. Labeled peptide pools were desalted on C18 Sep-Pak cartridges (37–55 µm particle size, 50 mg capacity, Waters), using 0.1% formic acid as equilibration solvent, and 0.1% formic acid in 60% acetonitrile was used as elution solvent. Eluted peptides were freeze-dried and stored at −20 °C until further use.
Basic reversed-phase (bRP) fractionation of peptides was performed on a Vanquish HPLC (Thermo Scientific). In short, dried peptides were reconstituted in 200 µl 25 mM ammonium bicarbonate, pH 8.0 and directly injected onto a Waters BEH130 XBridge C18 column (3.5 µm, 4.6 × 250 mm). […] Using an automated fraction collector, 96 fractions were collected between min 7 and 55 after injection. Fractions were acidified with 1% formic acid and pooled to 48 fractions, before they were freeze-dried and stored at −20 °C.
Immobilized metal ion affinity chromatography (IMAC) enrichment of phosphorylated peptides was performed on the Bravo automated liquid handling platform using AssayMAP Fe(III)-NTA cartridges (Agilent). In brief, the 48 dried peptide fractions were reconstituted in 0.1% TFA in 80% acetonitrile and further pooled to 12 fractions (200 µl final volume per well). The phosphopeptide enrichment protocol embedded in the Agilent AssayMAP Bravo Protein Sample Prep Workbench v2.0 software was run. Thereby, the cartridges were first primed with 150 μl 0.1% TFA in acetonitrile at 300 μl/min, and equilibrated with 150 μl 0.1% TFA in 80% acetonitrile at 10 μl/min. Then, pooled fractions were loaded at 5 µl/min and further washed three times with 150 μl 0.1% TFA in 80% acetonitrile at 50 μl/min. Enriched peptides were eluted with 60 μl 1% ammonium hydroxide at 5 μl/min.

p-sites in Capan-1 cells = experiment: Phosphoproteomics GEM + Elimusertib vs. GEM (non-decryptM); assay type: cell-based, human
Description: as §1
(§2) Oxidized methionine, N-terminal acetylation, and phosphorylation (STY) were set as variable modification, and cysteine carbamidomethylation was set as fixed modification. All other search parameters were kept as default, except for protein FDR which was set to 1. […] Potential contaminants and reversed hits were removed, and only peptides with unambiguously assigned phosphorylation sites with a localization probability of > 0.75 were retained. To acquire site-level quantification values, the corrected reporter ion intensities of peptides containing the same phosphosite(s) were summed up. Median centering of corrected TMT reporter channel intensities was performed. […] Channel 11 served as a vehicle for the chemodrug treatment and was not subjected to curve fitting. Instead, row-wise normalization was performed across all four TMT-batches using the medians of channels 10 and 11. […] Phosphoproteomic experiments in six additional cell lines (not dose-resolved) were median-centered within each TMT-batch, prior to row-wise normalization across all TMT-batches using a common channel filled with AsPC-1 lysate (Appendix Table S5). […]

p-sites in Dan-G cells = experiment: as above; assay type: cell-based, human
Description: as §1, §2

AsPC-1 cells = experiment: Cell proliferation assay, chemodrug + ATR inhibitor (Incucyte confluence, 72 h); conditions: for EC50: Homo sapiens;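 for all read-outs here: underlying read-out for every value is AsPC-1 confluence after 72 h incubation at 37 °C and 5% CO2, divided by that well's starting confluence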

`C[C@@H]1COCCN1c1cc(-c2ccnn2C)c2ccnc(-c3ccn[nH]3)c2n1` [Elimusertib] was tested, and the EC50 ([1]; ASPC1, read-out: EC50 of the majority of pSQ/pTQ sites) was roughly 10 nM, the EC50 ([1]; ASPC1, read-out: median EC50 across all drug-regulated pSQ/pTQ-sites) was 10 nM and the EC50 ([1]; ASPC1, read-out: pEC50, RALY S176 (converted)) was 12.9 nM. For the same compound, the EC50 ([1]; ASPC1, read-out: pEC50 of the majority of pSQ/pTQ sites (converted)) was roughly 10 nM, the “Log2 PTM response (GEM+ATRi vs. GEM)” value ([1]; PHF14-pS294) was -1.3 and the “Log2 PTM response (GEM+ATRi vs. GEM)” value ([1]; PPM1G-pS201) was -1.3. The “PTM response (norm. to 1 µM GEM)” value ([1]; source data 4B (p-site not named), 1 µM GEM + ATRi 1 nM) was 1.21, the “PTM response (norm. to 1 µM GEM)” value ([1]; source data 4B (p-site not named), 1 µM GEM + ATRi 3 nM) was 1.02 and the “PTM response (norm. to 1 µM GEM)” value ([1]; source data 4B (p-site not named), 1 µM GEM + ATRi 30 nM) was 0.49. The “PTM response (norm. to 1 µM GEM)” value ([1]; source data 4B (p-site not named), 1 µM GEM + ATRi 100 nM) was 0.36, the “PTM response (norm. to 1 µM GEM)” value ([1]; source data 5B (p-site not named), 1 µM GEM + ATRi 1 nM) was 1.19 and the “PTM response (norm. to 1 µM GEM)” value ([1]; source data 5B (p-site not named), 1 µM GEM + ATRi 10 nM) was 0.52. The “PTM response (norm. to 1 µM GEM)” value ([1]; source data 5B (p-site not named), 1 µM GEM + ATRi 100 nM) was 0.14, the “PTM response (norm. to 1 µM GEM)” value ([1]; source data 5B (p-site not named), 1 µM GEM + ATRi 300 nM) was 0.12 and the “PTM response (norm. to 1 µM GEM)” value ([1]; source data 5B (p-site not named), 1 µM GEM + ATRi 1000 nM) was 0.14. For the same compound, the “PTM response (norm. to 1 µM GEM)” value ([1]; source data 5B (p-site not named), 1 µM GEM + ATRi 3000 nM) was 0.12, the “PTM response (norm. to 1 µM GEM)” value ([1]; source data 5B (p-site not named), 1 µM GEM + ATRi 10000 nM) was 0.13 and the “Log2FC_mean (GEM+ATRi vs. GEM), CHEK1 pS468” value (p-sites in Capan-1 cells) was −4.5 log2. The “Log2FC_mean (GEM+ATRi vs. GEM), CHEK1 pS468” value (p-sites in Dan-G cells) was −4.2 log2, the Curve bottom (AsPC-1 cells) was 1.02 and 1.01 and the Curve top (AsPC-1 cells) was 0.35 and 0.32 and 0.30 and 0.34 and 0.33 and 0.38 and 0.37 and 0.36. The Response (AsPC-1 cells) was 1.16 and 1.13, the EC50 (AsPC-1 cells; ASPC1, 72 h, read-out: EC50 (cell growth)) was 113 nM and the EC50 (AsPC-1 cells; ASPC1, 72 h, read-out: EC50 mean [nM]) was 134 nM. It also gave an EC50 (AsPC-1 cells; ASPC1, read-out: EC50 mean [nM]) of 134 nM.

Where “and” joins values, the source holds several entries; their conditions need not be identical. Equal values may be shown once. Read-outs that look alike come from different tables or passages of the source.
